We go through 1 compound from patent US20240294535A1, “IMIDAZOTRIAZINE THIOBENZAMIDE DERIVATIVE, AND PREPARATION METHOD AND APPLICATION THEREOF” (Yunbaiyao Zhengwu Science and Technology (Shanghai) Co., …, priority 2023, published 2024).

The data set has as its system SPF Kunming mice. The note with it: intragastrically administered.

Usually LD50 stands for the dose expected to kill half of the subjects tested. Low readings indicate greater toxicity, high ones lower toxicity. Consider `CNC(=S)c1ccc(-c2cnc3ncc(C(=O)c4ccc5ncccc5c4)n3n2)cc1F` [Compound 22], for which the LD50 came to 289 mg/kg.
